This data set can be described thus: Mouse body weight and health in the MPNST tumor models. The class given is in vivo, mice. The settings on record: JW23.3, WU-386 and JH-2-002 mouse models; daily treatment, three weeks. How it is done:
. […] After 7-10 days, mice were treated daily with 1.5 mg/kg deucravacitinib (Deucra, BMS-986165), 30 mg/kg mirdametinib (Mirda), the combination of drugs, or vehicle control for three weeks or until tumors reached the maximum allowed volume. Mouse body weight, an indicator of health, was measured 2-3 times per week.

With `[2H]C([2H])([2H])NC(=O)c1nnc(NC(=O)C2CC2)cc1Nc1cccc(-c2ncn(C)n2)c1OC` [deucravacitinib], the “mouse body weight / adverse health effects” value is “did not significantly decrease mouse body weight”.

The values above are taken from US12708622B2, “Methods of treating cancer and inhibiting TYK2 and MEK” (Washington University, priority 2021, dated 2026).
